In US20070184519A1, “Peptides, polypeptides, and proteins of reduced immunogenicity and methods for their production” (priority 2003, published 2007) one finds IC50 data, which are given here for five molecules.

By UniProt entry, the sequences of proteins in these tests, tags left out. Residues count along the entry.
UniProt P01920, 33-261: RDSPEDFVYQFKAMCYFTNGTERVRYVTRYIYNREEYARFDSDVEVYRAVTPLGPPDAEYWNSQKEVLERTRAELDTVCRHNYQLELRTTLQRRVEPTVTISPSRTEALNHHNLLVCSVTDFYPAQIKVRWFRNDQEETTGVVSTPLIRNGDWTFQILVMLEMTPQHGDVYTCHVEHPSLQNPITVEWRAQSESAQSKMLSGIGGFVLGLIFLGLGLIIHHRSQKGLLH
UniProt Q30154, 30-266: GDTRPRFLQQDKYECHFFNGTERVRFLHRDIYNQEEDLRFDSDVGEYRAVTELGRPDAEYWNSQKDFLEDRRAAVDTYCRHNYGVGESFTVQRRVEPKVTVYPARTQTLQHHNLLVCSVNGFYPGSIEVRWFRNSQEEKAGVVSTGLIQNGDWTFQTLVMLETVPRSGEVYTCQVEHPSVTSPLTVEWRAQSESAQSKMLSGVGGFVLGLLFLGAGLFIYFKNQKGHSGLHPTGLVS

By pIC50 is commonly meant −log10 of the IC50, conventionally taken in molar units. A high value points to a low IC50. A word on the IC50: it is the midpoint of a concentration-inhibition curve. A higher IC50 goes with a need for much substance.

SMILES strings stand for the structures. pIC50: −log10 of the molar value. Where two headings read alike, the source gives them in different places.

For one test, the target named is DRB1*0901 (Homo sapiens, UniProt P01903+P01911, A100R/A103E/D57H/D86V/F55Y/F60I/F76Y/I96F/K127E/L162R/M171V/P40D/Q125H/Q99R/R33Q/R42F/S133A/S66N/T210M/V115G/W38K/Y107V/Y59G/Y89S). The test is described as follows: Class II peptide-binding assay DRB1*0901 (DR9).
In the next test the target is T1, DRB1*1101 (Homo sapiens, UniProt P01903+P01911, A100R/A169T/A87E/I96F/K41T/L162R/M171V/P40S/Q125H/Q178H/Q39Y/Q99D/R42S/S66Y/T262R/V115G/W38E).
T1 construct: Epstein-Barr virus (EBV) transformed homozygous cell lines were used as sources of human HLA Class II molecules; endogenous in cells; host or cells: SWEIG (EBV-transformed homozygous B cell line)
In kind it is binding.

The next test addresses T2, DRB1*0701 (Homo sapiens, UniProt P01903+P01911, A100R/A102G/A103Q/D57E/D86V/E43K/F76Y/K127E/L162R/M171V/P40G/Q125H/Q99D/R33Q/R42Y/R54Q/S133A/S66F/T210M/V115G/Y107V/Y59L/Y89S).
T2 construct: Epstein-Barr virus (EBV) transformed homozygous cell lines were used as sources of human HLA Class II molecules; endogenous in cells; host or cells: PITOUT (EBV-transformed homozygous B cell line)
The test is described as follows: Class II peptide-binding assay DRB1*0701 (DR7).

The target in another test is T3, DRB1*1302 (Homo sapiens, UniProt P01903+P01911, A100E/A169T/K41T/L162R/M171V/P40S/Q125H/Q178H/Q39Y/Q99D/R42S/S66N/T262R/V115G/W38E/Y61H).
T3 construct: Epstein-Barr virus (EBV) transformed homozygous cell lines were used as sources of human HLA Class II molecules; endogenous in cells; host or cells: HO301 / H0301 (EBV-transformed homozygous B cell line)
The test can be described thus: Class II peptide-binding assay DRB1*1302 (DR6w19).

The target in the next test is T4, DRB1*0802 (Homo sapiens, UniProt P01903+P01911, A100R/A103L/A169T/F76Y/H45Y/I96F/K41T/L162R/M171V/P40S/Q125H/Q178H/Q39Y/Q99D/R218S/R42G/S66Y/V115G/W38E).
T4 construct: Epstein-Barr virus (EBV) transformed homozygous cell lines were used as sources of human HLA Class II molecules; endogenous in cells; host or cells: OLL (EBV-transformed homozygous B cell line)
The test can be described thus: Class II peptide-binding assay DRB1*0802 (DR8w2).

The target in the next test is T5, DRB1*1501 (Homo sapiens, UniProt P01903+P01911).
T5 construct: expressed in transfected cells; host or cells: transfected fibroblasts L466.1
The test is described as follows: Class II peptide-binding assay DRB1*1501 (DR2w2b).

The target in a further test is T6, DRB1*0404 (Homo sapiens, UniProt P01903+P01911, A100R/A169T/F76Y/I96L/K127E/L162R/M171V/N62H/P40V/Q125Y/R42H/S133A/S149N/S66Y/V209L/W38E).
T6 construct: Epstein-Barr virus (EBV) transformed homozygous cell lines were used as sources of human HLA Class II molecules; endogenous in cells; host or cells: BIN40 (EBV-transformed homozygous B cell line)
The test is described as follows: Class II peptide-binding assay DRB1*0404 (DR4w14).

The target of a further test is T7, DRB1*0101 (Homo sapiens, UniProt P01903+P01911, A100R/D57E/F55L/F60I/F76Y/I96L/L162R/M171V/P40L/Q125E/R42F/V115G/Y59C).
T7 construct: Epstein-Barr virus (EBV) transformed homozygous cell lines were used as sources of human HLA Class II molecules; endogenous in cells; host or cells: LG2 (EBV-transformed homozygous B cell line)
The test is described as follows: Class II peptide-binding assay DRB1*0101 (DR1).

The next test deals with DQB1*0301 (Homo sapiens, UniProt P01909+P01920). The test is described as follows: Class II peptide-binding assay DQB1*0301.
The next test deals with T8, DRB1*0405 (Homo sapiens, UniProt P01903+P01911, A100R/A169T/D86S/F76Y/I96L/K127E/L162R/M171V/N62H/P40V/Q125Y/R42H/S133A/S149N/S66Y/V115G/V209L/W38E).
T8 construct: Epstein-Barr virus (EBV) transformed homozygous cell lines were used as sources of human HLA Class II molecules; endogenous in cells; host or cells: KT3 (EBV-transformed homozygous B cell line)
The test is described as follows: Class II peptide-binding assay DRB1*0405 (DR4w15).

A further test has as its target T9, DRB1*0301 (Homo sapiens, UniProt P01903+P01911, A100K/A102G/A103R/A169T/F55Y/I96L/K41T/L162R/M171V/P40S/Q125H/Q178H/Q39Y/R42S/S66N/T106N/T262R/W38E/Y61H).
T9 construct: Epstein-Barr virus (EBV) transformed homozygous cell lines were used as sources of human HLA Class II molecules; endogenous in cells; host or cells: MAT (EBV-transformed homozygous B cell line)
The test is described as follows: Class II peptide-binding assay DRB1*0301 (DR3).

Another test concerns the target T10, DRB1*0401 (Homo sapiens, UniProt P01903+P01911, A100K/A169T/F76Y/I96L/K127E/L162R/M171V/N62H/P40V/Q125Y/R42H/S133A/S149N/S66Y/V115G/V209L/W38E).
T10 construct: Epstein-Barr virus (EBV) transformed homozygous cell lines were used as sources of human HLA Class II molecules; endogenous in cells; host or cells: PREISS (EBV-transformed homozygous B cell line)
The test can be described thus: Class II peptide-binding assay DRB1*0401 (DR4w4).

In another test the target is T11, DRB5*0101 (Homo sapiens, UniProt P01903+Q30154).
T11 construct: Epstein-Barr virus (EBV) transformed homozygous cell lines were used as sources of human HLA Class II molecules; endogenous in cells; host or cells: GM3107 (EBV-transformed homozygous B cell line)
The test can be described thus: Class II peptide-binding assay DRB5*0101 (DR2w2a). The following applies: IFNb 15-mer peptides, Table 5D.

The mark [1] stands for this setting: inhibition of radiolabeled probe binding, — read as no appreciable binding.

Turning to `CC[C@H](C)[C@H](NC(=O)[C@@H](NC(=O)[C@H](CCCCN)NC(=O)[C@@H](N)Cc1ccc(O)cc1)[C@@H](C)O)C(=O)N[C@@H](C)C(=O)N[C@@H](Cc1ccc(O)cc1)C(=O)N[C@@H](CC(=O)O)C(=O)N[C@@H](CCC(=O)O)C(=O)N[C@@H](CCC(=O)O)C(=O)N[C@@H](C)C(=O)N[C@@H](CCCNC(=N)N)C(=O)N[C@@H](CCCNC(=N)N)C(=O)O`, the pIC50 at DRB1*0901 is under 5.00; against DRB1*1101, under 4.70; at DRB1*0701 it was under 4.70; on DRB1*1302 it was under 5.00; on DRB1*0802 it was under 4.70; at DRB1*1501, under 4.70. Besides, the pIC50 is under 4.70 at DRB1*0404, under 4.70 at DRB1*0101, under 4.70 on DQB1*0301 and under 5.60 on DRB1*0405.

On to `CSCC[C@H](NC(=O)[C@H](CC(=O)O)NC(=O)[C@H](CCCCN)NC(=O)[C@H](CCCNC(=N)N)NC(=O)[C@H](Cc1ccccc1)NC(=O)[C@H](CS)NC(=O)[C@H](Cc1ccc(O)cc1)NC(=O)[C@H](CC(C)C)NC(=O)[C@@H](N)CC(C)C)C(=O)N[C@@H](CC(=O)O)C(=O)N[C@@H](CCCCN)C(=O)N[C@H](C(=O)N[C@@H](CCC(=O)O)C(=O)N[C@H](C(=O)N[C@@H](Cc1ccccc1)C(=O)O)[C@@H](C)O)C(C)C`, for which the pIC50 at DRB1*1101 (setting [1]) is 5.35; at DRB1*1302 (setting [1]), 5.01; at DRB1*0802 (setting [1]) it was 5.41; on DRB1*0301 (setting [1]), 5.12; at DRB1*0404 (setting [1]), 4.90; on DRB1*0101 (setting [1]), 5.02. This molecule also had a pIC50 at DRB1*0401 (setting [1]) of 5.81. This molecule also yielded an IC50 at DRB1*1501 (setting [1]) of 2740 nM.

`CC(C)C[C@H](NC(=O)[C@H](C)NC(=O)[C@H](CCCNC(=N)N)NC(=O)[C@H](CC(C)C)NC(=O)[C@H](CC(C)C)NC(=O)[C@@H](NC(=O)[C@@H](NC(=O)[C@H](CC(C)C)NC(=O)[C@H](CO)NC(=O)[C@H](CCCNC(=N)N)NC(=O)[C@H](CC(N)=O)NC(=O)CN)[C@@H](C)O)[C@@H](C)O)C(=O)NCC(=O)N[C@@H](C)C(=O)N[C@@H](CCC(N)=O)C(=O)O`: the pIC50 at DRB1*0901 is 6.49; on DRB1*1101, 7.54; on DRB1*1302, 5.28; on DRB1*0802, 7.60; at DRB1*0404, 7.32; on DRB1*0101, 7.60. Also, the negative logarithm of the IC50 (pIC50) on DRB1*0401 is 6.67; at DRB1*0405 it was 5.43.

For `CC(C)C[C@H](NC(=O)[C@H](CCCCN)NC(=O)[C@H](CCC(=O)O)NC(=O)[C@H](CCC(=O)O)NC(=O)[C@H](CC(C)C)NC(=O)[C@@H](NC(=O)[C@@H](NC(=O)[C@H](CCCCN)NC(=O)[C@H](CC(C)C)NC(=O)[C@H](Cc1c[nH]cn1)NC(=O)[C@@H](N)CC(N)=O)[C@@H](C)O)C(C)C)C(=O)N[C@@H](CCC(=O)O)C(=O)N[C@@H](CCCCN)C(=O)N[C@@H](CCC(=O)O)C(=O)N[C@@H](CC(=O)O)C(=O)O` [NHLKTVLEEKLEKED], the pIC50 is 4.71 against DRB1*1101 (IFNb 15-mer peptides, Table 5D); 5.19 on DRB1*0701 (IFNb 15-mer peptides, Table 5D); 5.41 on DRB1*0301 (IFNb 15-mer peptides, Table 5D); 5.21 on DRB1*0101 (IFNb 15-mer peptides, Table 5D); 5.26 at DRB1*0405 (IFNb 15-mer peptides, Table 5D). Further, the IC50 on DRB1*1501 (IFNb 15-mer peptides, Table 5D) was found to be 7340 nM.

On DRB5*0101, `CC[C@H](C)[C@H](NC(=O)[C@H](CC(=O)O)NC(=O)[C@H](Cc1ccccc1)NC(=O)[C@H](CC(N)=O)NC(=O)[C@H](CCCNC(=N)N)NC(=O)[C@H](CCCNC(=N)N)NC(=O)[C@H](CC(=O)O)NC(=O)[C@H](CCCCN)NC(=O)[C@H](CC(C)C)NC(=O)[C@H](CS)NC(=O)[C@H](Cc1ccc(O)cc1)NC(=O)[C@H](CCC(=O)O)NC(=O)[C@H](CC(C)C)NC(=O)[C@H](CCCNC(=N)N)NC(=O)CN)C(=O)O` showed a pIC50 of 5.26.
